{"source": "paper PMC7899671", "about": "(eLife, 2021)", "tested_on": "α1L9'Tβ2γ2L, α1L9'T/V279Aβ2γ2L, and α1β2γ2L receptors", "assay": "MWC model of channel gating, global fit to estimated open probability", "conditions": "MWC model parameter", "data": [{"smiles": "CN1C(=O)CN=C(c2ccccc2)c2cc(Cl)ccc21", "note": "[DZ, diazepam]", "values": [{"measurement": "d (factor by which DZ binding influences channel opening)", "value": 0.59}]}]}
